# In patent US10301344B2, “L-proline complex of sodium-glucose cotransporter 2 inhibitor, monohydrate and crystal form thereof” (Jiangsu Hengrui Medicine Co., Ltd., priority 2014, dated 2019):
# Where two headings read alike, the source gives them in different places.
# Columns and labels:
# [1] = for effect of high humidity on stability: RH 75%, RH 90%; for purity as detected by HPLC, 40° C.: heating 40° C.; for purity as detected by HPLC, 60° C.: heating 60° C.; for purity as detected by HPLC, RH 75%: high humidity RH 75%; for purity as detected by HPLC, RH 90%: high humidity RH 90%; for purity as detected by HPLC, Lighting: lighting 4500 Lux
# [2] = for stability of the crystal form on grinding, heating and pressing: grinded, heated and pressed
# [3] = grinding treatment for 10 min in a mortar under nitrogen
# [4] = heating treatment at 60° C. for 3 hours
# [5] = pressing treatment, pressed to a slice
substance,measurement,setting,value
"1,6-anhydro-1-C-{4-chloro-3-[(3-fluoro-4-ethoxyphenyl)methyl]phenyl}-5-C-(hydroxymethyl)-β-L-idopyranose L-proline [Crystal form A]",effect of high humidity on stability,[1],does not have much effect
same,stability under the conditions of lighting and high temperature,[1]; compared with the amorphous sample,significantly better than that of the amorphous sample
same,stability under the conditions of high temperature and high humidity,"[1]; compared with the amorphous sample, summary statement",significantly better than that of the amorphous sample
same,"purity as detected by HPLC, 40° C.",[1]; day 0,99.76%
same,"purity as detected by HPLC, 40° C.",[1]; day 5,99.76%
same,"purity as detected by HPLC, 40° C.",[1]; day 10,99.75%
same,"purity as detected by HPLC, 60° C.",[1]; day 0,99.76%
same,"purity as detected by HPLC, 60° C.",[1]; day 5,99.74%
same,"purity as detected by HPLC, 60° C.",[1]; day 10,99.74%
same,"purity as detected by HPLC, RH 75%",[1]; day 0,99.76%
same,"purity as detected by HPLC, RH 75%",[1]; day 5,99.75%
same,"purity as detected by HPLC, RH 75%",[1]; day 10,99.74%
same,"purity as detected by HPLC, RH 90%",[1]; day 0,99.76%
same,"purity as detected by HPLC, RH 90%",[1]; day 5,99.76%
same,"purity as detected by HPLC, RH 90%",[1]; day 10,99.75%
same,"purity as detected by HPLC, Lighting",[1]; day 0,99.76%
same,"purity as detected by HPLC, Lighting",[1]; day 5,99.76%
same,"purity as detected by HPLC, Lighting",[1]; day 10,99.76%
same,"stability of the crystal form on grinding, heating and pressing",[2],the crystal form was stable
same,"stability of the crystal form on grinding, heating and pressing",[2]; listed as crystal form A,good stability
same,Crystal form after treatment,[2]; [3],form A
same,DSC peak after treatment,[2]; [3],110.46 °C
same,Crystal form after treatment,[2]; [4],form A
same,DSC peak after treatment,[2]; [4],110.64 °C
same,Crystal form after treatment,[2]; [5],form A
same,DSC peak after treatment,[2]; [5],110.29 °C
"1,6-anhydro-1-C-{4-chloro-3-[(3-fluoro-4-ethoxyphenyl)methyl]phenyl}-5-C-(hydroxymethyl)-β-L-idopyranose L-proline [Amorphous]",effect of high humidity on stability,[1],does not have much effect
same,"purity as detected by HPLC, 40° C.",[1]; day 0,99.68%
same,"purity as detected by HPLC, 40° C.",[1]; day 5,99.65%
same,"purity as detected by HPLC, 40° C.",[1]; day 10,99.62%
same,"purity as detected by HPLC, 60° C.",[1]; day 0,99.68%
same,"purity as detected by HPLC, 60° C.",[1]; day 5,99.67%
same,"purity as detected by HPLC, 60° C.",[1]; day 10,99.56%
same,"purity as detected by HPLC, RH 75%",[1]; day 0,99.68%
same,"purity as detected by HPLC, RH 75%",[1]; day 5,99.66%
same,"purity as detected by HPLC, RH 75%",[1]; day 10,99.65%
same,"purity as detected by HPLC, RH 90%",[1]; day 0,99.68%
same,"purity as detected by HPLC, RH 90%",[1]; day 5,99.66%
same,"purity as detected by HPLC, RH 90%",[1]; day 10,99.64%
same,"purity as detected by HPLC, Lighting",[1]; day 0,99.68%
same,"purity as detected by HPLC, Lighting",[1]; day 5,99.60%
same,"purity as detected by HPLC, Lighting",[1]; day 10,99.55%
